{
  "source": "patent US8383672B2",
  "about": "“Halogenated rhodamine derivatives and applications thereof” (Kiadis Pharma Canada Inc., priority 2001, dated 2013)",
  "key": {"[1]": {"tested_on": "S. epidermitis", "experiment": "Bacteriostatic activity of rhodamine derivatives against Staphilococcus epidermitis (photodynamic treatment, CFU/mL)", "type": "cell-based", "settings": "10 μM; 514 nm light 180 minutes, 30 Joules/cm^2", "procedure": "Staphilococcus epidermitis\nThe protocol used for the bacteriosidic inactivation was performed as described in Brasseur and coll. with few modifications for bacteriosidic potential assessment (Brasseur et al, 2000).\nBacterial was grown overnight in Lubria Broth medium (LB), 100 μl (≈1×10^7 bacteria) of each bacterial suspension was added to 4 ml of LB medium, a small aliquot of the bacterial suspension was taken out for bacterial titer prior to treatment expressed as CFU/mL. […] Each mixture of bacteria rhodamine derivative was incubated at 37° C. for 40 minutes. The bacteria-rhodamine suspensions were then treated and exposed to a 514 nm wavelength light for 180 minutes, for a total output energy of 30 Joules/cm^2. Following the treatment time, the bacteria-rhodamine suspensions were centrifuged at 3000 g, resuspended in 4 ml and serial dilutions were performed for each duplicate. 10 μL of the diluted bacterial suspensions were plated, the plates incubated overnight at 37° C. The bacteriostatic effect is expressed by the number of CFU/mL.\nThe protocol used for the bacteriosidic inactivation was performed as described in Brasseur and coll. without modification for bacteriosidic potential assessment (Brasseur et al, 2000).\nBacterial was grown overnight in Lubria Broth medium (LB), 100 μl (≈1×10^7 bacteria) of each bacterial suspension added to 4 ml of LB medium. […]"}, "[2]": {"tested_on": "E. coli", "experiment": "Bacteriostatic activity of rhodamine derivatives against E. coli (photodynamic treatment, CFU/mL)", "settings": "50 μM; 514 nm light 180 minutes, 30 Joules/cm^2"}},
  "data": [
    {"compound": "CCN(CC)c1ccc2c(-c3ccccc3C(=O)OCCCBr)c3ccc(=[N+](CC)CC)cc-3oc2c1", "note": "[HA-VIII-92, rhodamine B 3-bromopropyl ester]", "values": [
      {"measurement": "antibacterial activity against S. epidermitis", "setting": "[1]", "value": "showed antibacterial activity"},
      {"measurement": "antibacterial activity against E. coli", "setting": "[2]", "value": "showed antibacterial activity"}
    ]}
  ]
}
